Data from PubChem BioAssay AID588814 (The Scripps Research Institute Molecular Screening Center, 2011).
The list shows a part of the results, in another mix than the full data. Some tests of the compounds listed are not included; inactive here does not mean inactive elsewhere. Active and inactive are the calls of the source.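 How the source made its calls: active means activation above the run's mean compound activation plus 3 SD (cut at about 16% in these data); inactive means the rest.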

By UniProt entry, the sequences of proteins in these tests, tags left out.
UniProt P11229, whole entry: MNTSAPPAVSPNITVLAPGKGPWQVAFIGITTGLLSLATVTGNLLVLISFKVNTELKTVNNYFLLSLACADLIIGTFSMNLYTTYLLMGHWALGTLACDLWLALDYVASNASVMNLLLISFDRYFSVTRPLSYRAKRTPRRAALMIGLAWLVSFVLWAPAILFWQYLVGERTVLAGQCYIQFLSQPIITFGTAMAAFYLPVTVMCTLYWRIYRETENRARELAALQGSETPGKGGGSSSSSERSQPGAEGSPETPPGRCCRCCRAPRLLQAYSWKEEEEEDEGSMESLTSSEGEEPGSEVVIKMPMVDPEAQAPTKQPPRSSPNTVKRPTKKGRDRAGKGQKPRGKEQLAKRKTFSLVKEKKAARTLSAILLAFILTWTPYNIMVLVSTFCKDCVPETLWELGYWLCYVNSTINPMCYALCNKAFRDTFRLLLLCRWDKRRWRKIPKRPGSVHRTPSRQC

target: Muscarinic acetylcholine receptor M1 (Homo sapiens) (UniProt P11229); assay: human M1 muscarinic receptor agonists, primary screen, Fluo-8 calcium fluorescence, CHO-K1 cells, HTS (AID 588814); settings: CHO-K1 hM1, Fluo-8 calcium fluorescence, agonist mode; at 3 µM; stronger effect = higher value; 0% DMSO, 100% acetylcholine EC100;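 further: peak over basal fluorescence ratio within a 140 s kinetic read after compound addition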

| Structure (SMILES) | activation |
| --- | --- |
| O=C(OC1CN2CCC1CC2)C(CO)(c1ccccc1)c1ccccc1 (stereo not drawn) | inactive: -5.33% |
| CN(C)c1cccc(C(=O)NCC2(N(C)C)CCCCC2)c1 | inactive: -5.39% |
| O=C(OCCN1CCCC1)C(O)(c1ccccc1)c1ccccc1 | inactive: -7.97% |
| CC(C)Oc1ccc(C(=O)NCC2(N(C)C)CCCCC2)cc1 | inactive: -6.25% |
| COc1ccc(Br)c(C(=O)NCC2(N3CCCCC3)CCCCC2)c1 | inactive: -4.83% |
| C=C(C)C#CC(O)(C(=O)OC1CCN(C)CC1)c1ccccc1 (stereo not drawn) | inactive: -8.25% |
| COc1cc(C(=O)NCC2(N(C)C)CCCCC2)c([N+](=O)[O-])cc1OC | inactive: -7.58% |
| CN(C)C1(CNC(=O)c2ccc(Br)cc2)CCCCC1 | inactive: -5.61% |
| O=C(NCC1(N2CCCCC2)CCCCC1)c1cccc(Cl)c1 | inactive: -5.09% |
| COc1ccc(Cl)cc1C(=O)NCC1(N(C)C)CCCCC1 | inactive: -9.33% |
| COc1cccc(C(=O)NCC2(N3CCCCC3)CCCCC2)c1 | inactive: -4.88% |
| CN(C)c1ccc(C(=O)NCC2(N(C)C)CCCCC2)cc1 | inactive: -6.05% |
| Cc1ccccc1C(=O)NCC1(N2CCCCC2)CCCCC1 | inactive: -5.22% |
| O=C(NCC1(N2CCCCC2)CCCCC1)c1cccc(Br)c1 | inactive: -2.48% |
| Cc1cc(C(=O)NCC2(N3CCCCC3)CCCCC2)ccc1[N+](=O)[O-] | inactive: -5.7% |
| COc1ccc(C(=O)NCC2(N(C)C)CCCCC2)cc1 | inactive: -3.08% |
| O=C(NCC1(N2CCCCC2)CCCCC1)c1cc(F)c(F)cc1Cl | inactive: -6.54% |
| C=CCN1CCN(CCOC(=O)C(O)(c2ccccc2)c2ccccc2)CC1 | inactive: -15.3% |
| O=C(NCC1(N2CCCCC2)CCCCC1)c1cc([N+](=O)[O-])ccc1Cl | inactive: -7.67% |
| Cc1ccc(C(=O)NCC2(N3CCCCC3)CCCCC2)cc1 | inactive: -8.68% |
| CC(C)N1C(=O)CC2(CCN(CCOC(=O)C(O)(c3ccccc3)c3ccccc3)CC2)C1=O | inactive: -3.63% |
| COc1cc(SC)ccc1C(=O)NCC1(N(C)C)CCCCC1 | inactive: -9.94% |
| CCN(CC)CC(C)C(C)OC(=O)C(O)(c1ccccc1)c1ccccc1 (stereo not drawn) | inactive: -4.84% |
